{"source": "BindingDB's records for doi:10.1016/j.bmcl.2007.04.068", "about": "(Wyeth Research, 2007)", "molecular_target": "Estrogen receptor alpha (Homo sapiens) (UniProt P03372)", "test": "Inhibition of human ERalpha", "data": [{"smiles": "Oc1ccc(-c2cc(Br)c3cc(O)ccc3n2)cc1", "note": "[4-Bromo-2-(4-hydroxy-phenyl)-quinolin-6-ol]", "values": [{"measurement": "IC50", "value": 4.3, "unit": "nM"}]}]}
